The pKa sets of Baltruschat and Czodrowski (2020)
Some results for these compounds are left out of this collection, so the calls shown say nothing about other tests.

Settings: experimental values, compiled

| Structure (SMILES) | pKa |
| --- | --- |
| CC(C)N(CCCl)CCCl | 7 |
| CN(CCO)CCCl | 7.5 |
| CCCCN(CCCl)CCCl | 6.63 |
| CCCN(CCCl)CCCl | 6.7 |
